Experimental data from patent publication US20160051704A1, “MOLECULAR IMAGING PROBES FOR LUNG CANCER INTRAOPERATIVE GUIDANCE” (H. Lee Moffitt Cancer Center and Research Institute, Inc., priority 2013, published 2016).

Target: T1, delta opioid receptor (δOR) on HCT-116/δOR cells, P41143
T1 chain: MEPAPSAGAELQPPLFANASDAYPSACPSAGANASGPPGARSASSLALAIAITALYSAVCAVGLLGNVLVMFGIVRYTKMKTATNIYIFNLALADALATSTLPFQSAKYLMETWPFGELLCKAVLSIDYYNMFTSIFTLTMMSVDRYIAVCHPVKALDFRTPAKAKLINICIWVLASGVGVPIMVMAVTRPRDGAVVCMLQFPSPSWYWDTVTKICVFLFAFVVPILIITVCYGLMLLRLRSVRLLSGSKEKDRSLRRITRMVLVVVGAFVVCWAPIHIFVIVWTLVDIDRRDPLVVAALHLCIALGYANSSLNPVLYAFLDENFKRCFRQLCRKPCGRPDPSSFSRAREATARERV
Experiment: in cyto time-resolved fluorescence saturation binding on HCT-116/δOR cells

YCGFC (modifications not checked) [Europium (Eu)-diethylenetriaminepentaacetic acid (DTPA)[D-Pen2, L-Cys5] enkephalin (DPLCE)]
Kd: 51.8 nM
